Data on 13 compounds can be found in PMC8842224 (2022).

Chains of the proteins cited; added tags and fusions are not shown.
UniProt P30542, whole entry: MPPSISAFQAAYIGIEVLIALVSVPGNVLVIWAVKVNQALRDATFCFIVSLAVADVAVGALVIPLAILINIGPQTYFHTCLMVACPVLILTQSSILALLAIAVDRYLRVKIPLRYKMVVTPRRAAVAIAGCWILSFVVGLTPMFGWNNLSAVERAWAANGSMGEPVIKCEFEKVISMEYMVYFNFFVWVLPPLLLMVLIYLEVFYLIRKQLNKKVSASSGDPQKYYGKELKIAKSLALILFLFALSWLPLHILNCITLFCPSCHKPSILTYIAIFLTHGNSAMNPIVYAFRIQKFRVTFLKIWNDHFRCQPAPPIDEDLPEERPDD
UniProt P0DMS8, whole entry: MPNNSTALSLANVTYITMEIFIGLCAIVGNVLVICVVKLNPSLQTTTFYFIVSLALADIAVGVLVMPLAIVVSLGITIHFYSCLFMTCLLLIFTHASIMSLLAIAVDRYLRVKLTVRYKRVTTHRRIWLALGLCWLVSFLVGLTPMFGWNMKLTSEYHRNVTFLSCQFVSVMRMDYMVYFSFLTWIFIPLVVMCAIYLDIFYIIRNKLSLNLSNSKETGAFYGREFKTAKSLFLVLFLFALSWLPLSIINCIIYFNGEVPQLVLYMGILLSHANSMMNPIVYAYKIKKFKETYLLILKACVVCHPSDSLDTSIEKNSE

In general, Ki refers to a dissociation constant, usually derived from enzyme kinetics or from competition with a known ligand.

The target in the first experiment is human A1AR (Homo sapiens, UniProt P30542).
Assay: not given
To be noted: read-out: hA1 Ki; displacement of specific [3H]DPCPX binding, human CHO cells, ± SEM, n = 3.
As for `N#Cc1c(-c2ccccc2)nc(N)nc1-c1ccccc1` [18a], the inhibition constant (Ki) is 4.42 ± 0.16 nM.

A further experiment deals with human A2AAR (Homo sapiens, UniProt P29274).
Assay: not given
To be noted: [3H]ZM241385, human HeLa cells, n = 2.
As to `N#Cc1c(-c2ccccc2)nc(N)nc1-c1c(F)cc(F)cc1F` [18w], the “hA2A percentage displacement of specific binding at 1 μM” value (shortened to “hA2A percentage displacement”) worked out at 2%.
The same measure, in the same setting: for `CNc1nc(-c2ccccc2)c(C#N)c(-c2ccc(F)cc2F)n1` [19af] the value was 3%; for `N#Cc1c(-c2ccccc2)nc(Nc2ccccc2)nc1-c1cc(F)cc(F)c1` [19ai], 1%.
Still for that read-out and setting: the value for `N#Cc1c(-c2ccccc2)nc(Nc2ccccc2)nc1-c1cc(Cl)cc(Cl)c1` [19al] was 1%; that for `CNc1nc(-c2ccccc2)c(C#N)c(C2CCCCC2)n1` [19bg] was 1%.
For the compound `COc1ccc(-c2nc(Nc3ccccc3)nc(-c3ccc(OC)cc3)c2C#N)cc1` [19bn], the “hA2A percentage displacement” value is given as 2%.
In the case of `CNc1nc(-c2ccccc2)c(C#N)c(-c2ccccc2OC)n1` [19h], the “hA2A percentage displacement” value came out at 1%.

A further experiment concerns the target T1, human A2BAR (Homo sapiens, UniProt P29275).
T1 sequence (P29275 1-332): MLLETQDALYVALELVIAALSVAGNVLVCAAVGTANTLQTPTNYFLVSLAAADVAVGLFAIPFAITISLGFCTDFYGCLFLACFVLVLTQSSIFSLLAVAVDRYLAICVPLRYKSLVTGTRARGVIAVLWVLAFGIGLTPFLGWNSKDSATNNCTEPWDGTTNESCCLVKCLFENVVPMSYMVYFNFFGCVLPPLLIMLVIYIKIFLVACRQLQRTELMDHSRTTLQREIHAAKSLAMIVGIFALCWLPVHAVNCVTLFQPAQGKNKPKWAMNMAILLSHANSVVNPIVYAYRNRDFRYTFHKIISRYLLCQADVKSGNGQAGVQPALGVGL
Briefly: biochemical. To be noted: read-out: hA2B percentage displacement of specific binding at 1 μM.
With `N#Cc1c(-c2ccccc2)nc(Nc2ccccc2)nc1-c1cccc(F)c1` [19k], the inhibition at 1 µM stood at 9%.

The target of another experiment is human A3AR (Homo sapiens, UniProt P0DMS8). Briefly: biochemical. The note with it: 3 h, read-out: hA3 percentage displacement of specific binding at 1 μM.
Consider `N#Cc1c(-c2ccccc2)nc(N)nc1-c1ccc(-c2ccccc2)cc1` [18ag], for which the inhibition at 1 µM stood at 1%.
As for `CNc1nc(-c2ccccc2)c(C#N)c(-c2ccc(OC)cc2)n1` [19ab], the inhibition at 1 µM amounted to 1%.
Regarding `CNc1nc(-c2ccccc2)c(C#N)c(-c2ccoc2)n1` [19ax], the inhibition at 1 µM was found to be 1%.
As to `CN(C)c1nc(-c2ccccc2)c(C#N)c(-c2cccc(Cl)c2)n1` [20b], the inhibition at 1 µM came to 2%.
